The assay has as its target thymidine phosphorylase (Escherichia coli, UniProt P07650). Type of assay: biochemical. The conditions noted are these: read-out: IC50 ± SEM.

The chains behind the UniProt entries cited, without tags or fusion partners. Where a name states a change or a piece, a line headed by the entry shows the natural chain unless it says otherwise.
UniProt P07650: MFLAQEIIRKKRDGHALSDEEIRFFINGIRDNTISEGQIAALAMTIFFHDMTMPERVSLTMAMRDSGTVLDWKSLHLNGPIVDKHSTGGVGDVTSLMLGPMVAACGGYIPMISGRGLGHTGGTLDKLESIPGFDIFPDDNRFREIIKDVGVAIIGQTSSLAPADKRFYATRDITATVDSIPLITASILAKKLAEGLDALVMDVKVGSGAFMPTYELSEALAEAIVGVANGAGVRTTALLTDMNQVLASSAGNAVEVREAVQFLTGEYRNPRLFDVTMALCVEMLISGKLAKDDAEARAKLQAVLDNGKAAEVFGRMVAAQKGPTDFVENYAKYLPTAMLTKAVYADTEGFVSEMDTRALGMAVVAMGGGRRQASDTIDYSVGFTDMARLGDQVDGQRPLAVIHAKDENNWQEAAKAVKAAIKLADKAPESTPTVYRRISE

Usually IC50 stands for the concentration at which inhibition is half-maximal.

For 7-Deazaxanthine [reference compound], the IC50 amounted to 25.8 ± 1.9 µM.

These data come from paper PMC10641276 (Saudi Pharmaceutical Journal : SPJ, 2023).
